PubChem BioAssay (NCI)
The entries are a selection whose mix differs from that of the whole data set.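 Activity criterion: percent growth below 10, measured after cells in 96-well plates were exposed to a single compound concentration for 48 hours.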 The source made the active and inactive calls.

What was measured:
Test in all cases: NCI-60 one-dose screen, 48 h (100 = growth as untreated, 0 = no growth, -100 = all killed)
Conditions in all cases: 10 µM
[1] = system: SK-MEL-2 melanoma
[2] = system: SN12C renal
[3] = system: UO-31 renal
[4] = system: TK-10 renal
[5] = system: ACHN renal
[6] = system: CAKI-1 renal
[7] = system: A498 renal
[8] = system: HL-60(TB) leukemia
[9] = system: CCRF-CEM leukemia
[10] = system: EKVX NSCLC

Measured: growth

CN(Cc1cccnc1)C(=O)COc1ccc(Cl)c(Cl)c1.O=[N+]([O-])c1cc([N+](=O)[O-])c(O)c([N+](=O)[O-])c1
inactive: [1] 108% | [2] 96.6% | [3] 78.7% | [4] 124% | [5] 96.1% | [6] 94.7% | [7] 108% | [8] 119% | [9] 102%

COC(=O)C(O)(c1ccccc1)c1ccccc1
inactive: [1] 111% | [2] 78.6% | [3] 90.6% | [4] 108% | [5] 103% | [6] 102% | [7] 115% | [8] 121% | [9] 103%

O=[N+]([O-])c1cc([N+](=O)[O-])c(O)c([N+](=O)[O-])c1.c1ccnnc1
inactive: [1] 107% | [2] 98.3% | [3] 94% | [4] 120% | [5] 92.3% | [6] 100% | [7] 106% | [8] 102%

O=C1N([N+](=O)[O-])CCN1[N+](=O)[O-]
inactive: [1] 113% | [2] 98.9% | [3] 83.7% | [4] 110% | [5] 99.1% | [6] 103% | [7] 91.8% | [8] 115% | [9] 100%

CCN(CC)CCOC(=O)C(O)(c1cc(C)cc(C)c1)c1cc(C)cc(C)c1
inactive: [10] 99.7% | [2] 90.9% | [3] 85.6% | [4] 89.8% | [5] 101% | [6] 98.8% | [7] 51.4% | [8] 101% | [9] 102%
